Our source for the Ki values is patent publication US20230021419A1 (Bicycle, published 2023).

The labels stand for the following.
T1: human IL-17A (human, UniProt Q16552 24-155)
T1 construct: also called CTLA-8
T1 sequence (looked up): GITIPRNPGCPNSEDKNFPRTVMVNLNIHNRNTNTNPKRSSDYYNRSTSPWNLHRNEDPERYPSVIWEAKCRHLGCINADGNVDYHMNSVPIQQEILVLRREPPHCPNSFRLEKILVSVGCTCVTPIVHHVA

B1: BCY13647 (peptide)
peptide: CDTDPELCRFLELDC
modifications: [dE] = D-glutamate in CiDTDPELCiiRFL[dE]LDCiii; Ci, Cii, Ciii cyclised with TBMT
notes: Bicyclic peptide on TBMT scaffold

For one assay, the target named is T1, human IL-17A. The assay can be described thus: fluorescence polarization competition; tracer BCY13196, 75 nM IL-17A; mean, n=3. On the procedure: (§1) Affinity determination by fluorescence polarization (FP) competition. Bicycles were screened to determine affinity (Ki) in a fluorescence polarisation assay where in competition with a bicycle labelled with fluorescein (referred to as tracer) with a known affinity for IL-17A. Peptides were diluted to an appropriate concentration in assay buffer (PBS+0.01% Tween20, adjusted to pH7.4 using NaOH (1M)) with a maximum of 1% DMSO, then serially diluted 1 in 2 into assay buffer. Into black 384-well low volume plates, 5 μL of diluted peptide was added to the plate followed by 10 μL of IL-17A at a fixed concentration (75 nM IL-17A for tracer BCY13196, 50 nM IL-17A for tracer BCY13351), then 10 μL tracer added to a final concentration of 1 nM. Measurements were conducted on a BMG PHERAstar FS equipped with an “FP 485 520 520” optic module which excites at 485 nm and detects parallel and perpendicular emission at 520 nm. The PHERAstar FS was set at 25° C. with 200 flashes per well and a positioning delay of 0.1 second, with each well measured at 5 to 10 minute intervals for 60 minutes. The gain used for measurements was determined at the point of experiment on a tracer alone well. […]
(§2) Selected peptide ligands of the invention were tested in the above mentioned IL-17A human fluorescence polarization (FP) competition assay and the results are shown in Table 1: […]
On the technique in general: Polarisation of emitted light reports the rotation of a fluorescent probe.
As usually defined, the Ki is a dissociation constant, usually derived from enzyme kinetics or from competition with a known ligand. Regarding ACPQDLELCTFLFGDCA (Ci, Cii, Ciii cyclised with TBMT, Bicyclic peptide on TBMT scaffold) [BCY13060], the inhibition constant (Ki) is 228 nM.

The target in a further assay is T1, human IL-17A. The assay can be described thus: fluorescence polarization competition; tracer BCY13351, 50 nM IL-17A; mean, n=5. How it is done: as §1, §2
Consider CDTDPELCRFLGLDC (Ci, Cii, Ciii cyclised with TBMT, Bicyclic peptide on TBMT scaffold) [BCY13202], for which the Ki stood at 13.6 nM.

The target in another assay is T1, human IL-17A. The assay can be described thus: fluorescence polarization competition; tracer cell blank, taken as BCY13351; mean, n=3. How it is done:
Affinity determination by fluorescence polarization (FP) competition. Bicycles were screened to determine affinity (Ki) in a fluorescence polarisation assay where in competition with a bicycle labelled with fluorescein (referred to as tracer) with a known affinity for IL-17A. Peptides were diluted to an appropriate concentration in assay buffer (PBS+0.01% Tween20, adjusted to pH7.4 using NaOH (1M)) with a maximum of 1% DMSO, then serially diluted 1 in 2 into assay buffer. Into black 384-well low volume plates, 5 μL of diluted peptide was added to the plate followed by 10 μL of IL-17A at a fixed concentration (75 nM IL-17A for tracer BCY13196, 50 nM IL-17A for tracer BCY13351), then 10 μL tracer added to a final concentration of 1 nM. Measurements were conducted on a BMG PHERAstar FS equipped with an “FP 485 520 520” optic module which excites at 485 nm and detects parallel and perpendicular emission at 520 nm. The PHERAstar FS was set at 25° C. with 200 flashes per well and a positioning delay of 0.1 second, with each well measured at 5 to 10 minute intervals for 60 minutes. The gain used for measurements was determined at the point of experiment on a tracer alone well. Data analysis was performed in Dotmatics where mP values were fit to the Cheng Prusoff equation in order to generate a Ki value.
as §2
Consider B1, for which the Ki is 28.7 nM.
Still for that read-out and setting: next, CDTDPELCRFLVLDC ([dV] = D-valine in CiDTDPELCiiRFL[dV]LDCiii; Ci, Cii, Ciii cyclised with TBMT, Bicyclic peptide on TBMT scaffold) [BCY13648]: 23 nM; CDTDPELCRFLNLDC (Ci, Cii, Ciii cyclised with TBMT, Bicyclic peptide on TBMT scaffold) [BCY13219]: 114 nM.
In the case of CDTDPELCRFLALDC ([dA] = D-alanine in CiDTDPELCiiRFL[dA]LDCiii; Ci, Cii, Ciii cyclised with TBMT, Bicyclic peptide on TBMT scaffold) [BCY13201], the Ki is 23 nM.
With CDTDPELCAFLGLDC (Ci, Cii, Ciii cyclised with TBMT, Bicyclic peptide on TBMT scaffold) [BCY13208], the Ki amounted to 36.3 nM.
Regarding CDTDPELCSFLGLDC (Ci, Cii, Ciii cyclised with TBMT, Bicyclic peptide on TBMT scaffold) [BCY13651], the Ki amounted to 41.1 nM.
As to CDTDPELCRFLGIDC (Ci, Cii, Ciii cyclised with TBMT, Bicyclic peptide on TBMT scaffold) [BCY13221], the Ki was 29.9 nM.
Regarding CDTDPELCRFLGVDC (Ci, Cii, Ciii cyclised with TBMT, Bicyclic peptide on TBMT scaffold) [BCY13222], the Ki was determined as 62.9 nM.
